From publication PMC5757840
pKd: −log10 of the molar value.

The chains behind the UniProt entries cited, without tags or fusion partners. Where a name states a change or a piece, a line headed by the entry shows the natural chain unless it says otherwise.
UniProt P63045: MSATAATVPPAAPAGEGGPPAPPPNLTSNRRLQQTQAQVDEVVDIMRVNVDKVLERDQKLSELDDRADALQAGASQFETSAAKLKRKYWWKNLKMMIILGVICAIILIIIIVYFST
UniProt P21707: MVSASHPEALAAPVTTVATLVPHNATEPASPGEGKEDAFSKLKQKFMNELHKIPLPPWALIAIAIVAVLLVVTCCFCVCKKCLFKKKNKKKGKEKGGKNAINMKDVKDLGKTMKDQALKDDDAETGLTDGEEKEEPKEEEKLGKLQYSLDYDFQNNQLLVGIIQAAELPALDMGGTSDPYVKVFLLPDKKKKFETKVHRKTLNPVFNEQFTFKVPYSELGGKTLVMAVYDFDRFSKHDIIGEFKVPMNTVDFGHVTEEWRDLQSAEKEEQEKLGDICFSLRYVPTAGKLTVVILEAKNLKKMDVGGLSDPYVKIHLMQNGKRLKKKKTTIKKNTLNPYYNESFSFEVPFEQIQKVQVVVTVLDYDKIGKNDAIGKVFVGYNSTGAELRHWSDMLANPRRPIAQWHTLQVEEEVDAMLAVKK

Biological target: SNARE^Q/Cpx^48-73 subcomplex (rat) (UniProt P63045)
Experiment: ITC

Substance: Syt1 C2B^KA-Q mutant (K326A/K327A with R281A/E295A/Y338W/R398A/R399A) (from UniProt P21707 271-421) (domain or fragment)
- pKd: 4.80
